# The list is not random: actives were taken first. Their share in the collection is about 1.8%.
# DENV2 CPE rescue: DENV2-induced cell death inhibition | AID 651640 | DENV2-infected cells, cytopathic effect rescue, plate reader | hit rate 1.7% among 350,000 | CPE inhibition, % at 9.99 µM; in the data active means CPE inhibition above about 20%, passing the limit was not always enough; inconclusive means no clear call, values can overlap the other calls; tested in BHK-21 cells;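 further: 0% = median of neutral control wells and 100% = median of positive control wells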
# UUG fidelity: modulators of start codon recognition fidelity in yeast; AID 602363; hit rate 0.13% among 350,000; activity score, % at 18.7 µM; S. cerevisiae UUG-firefly luciferase reporter, luminescence/redox ratio;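 active = replicate mean at a twofold rise or more, about +100% in these data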;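 note: firefly luciferase made from a UUG start codon reports start codon fidelity; reporter light over untreated wells divided by growth signal over untreated wells; some hits fall short of that in this replicate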
# Cneo AK release: causes C. neoformans cell lysis | adenylate kinase release luminescence, 4 h; normalised: neutral wells 0, clomiphene wells 100 | lysis activity, % at 15 µM | hit rate 0.2% among 360,000;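 active means mean lysis activity across replicates of at least 80%, whatever share of replicates individually reach that level; inactive means mean lysis activity below 80%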
#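 Assay system: C. neoformans cells. Amount: yeast cell density of 5 × 10^6 cells/mL. Technique: AK luminescence. Buffer or medium: YPD. Times: static 4 h at 37 °C with compound, 1 h detection. Dosing: single-point compound dose. Read-out: lysis from increased AK signal.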
# E-selectin induc: E-selectin induction on HUVECs. P16581. HUVEC E-selectin immunofluorescence imaging; normalized: neutral wells 0, TNF-alpha wells 100. activation, % at 7.58 µM. hit rate 0.37% among 260,000. AID 686992;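 active means mean E-selectin-positive cell signal at least 10% of the positive control, reached in at least 60% of replicates, without over 20% cell loss; inconclusive means no rule given, readout overlaps actives, possibly toxicity-flagged; inactive means the rest, including those meeting only one limit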
#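 Assay system: HUVEC, human umbilical vein endothelial cells / Amount: 3,000 HUVEC/well / Controls: TNF-alpha positive control, DMSO neutral control / Compound dosing: single concentration / Medium: EGM-2 over gelatin coat / Evaluation: percent E-selectin-positive cells / Signal: immunofluorescence imaging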
# * marks the source's active call; other numbers are inactive results; ? = inconclusive; / = no result given.
# Screens by letter – A = DENV2 CPE rescue; B = UUG fidelity; C = Cneo AK release; D = E-selectin induc
1) C[C@H](CO)N1C[C@H](C)[C@H](CN(C)S(=O)(=O)c2ccccc2)Oc2ccc(NS(=O)(=O)c3ccc(F)cc3)cc2C1=O
  A: -8 | B: 26 | C: 104* | D: 0
2) COc1ccc(CN(C)C[C@@H]2OCCCC[C@H](C)Oc3ccc(NC(=O)Nc4ccc5c(c4)OCO5)cc3C(=O)N([C@H](C)CO)C[C@@H]2C)cc1
  A: -4 | B: -2 | C: 4 | D: 11
3) CCCNC(=O)N1CC2(CCN(C(=O)c3cnccn3)CC2)c2c([nH]c3cc(OC)ccc23)[C@@H]1CO
  A: -4 | B: / | C: / | D: 0
4) CCC(=O)N[C@@H]1CC[C@@H](CC(=O)NCC2CC2)O[C@@H]1CO
  A: ? | B: / | C: / | D: 0
5) CCCNC(=O)C[C@H]1C[C@H]2c3cc(NC(=O)CN(C)C)ccc3O[C@H]2[C@H](CO)O1
  A: -4 | B: -13 | C: -2 | D: 0
6) CCCNC(=O)C[C@@H]1C[C@H]2c3cc(NC(=O)CN(C)C)ccc3O[C@H]2[C@@H](CO)O1
  A: 65* | B: -13 | C: -1 | D: -1
7) CN(C)CC(=O)Nc1ccc2c(c1)[C@@H]1C[C@H](CC(=O)NCc3ccccc3)O[C@H](CO)[C@@H]1O2
  A: -6 | B: -9 | C: -1 | D: -1
8) CN(C)c1ccc2c(c1)[C@@H]1C[C@@H](CC(=O)NCc3ccc(Oc4ccccc4)cc3)O[C@@H](CO)[C@@H]1O2
  A: 0 | B: / | C: 23 | D: 0
9) CN(C)c1ccc2c(c1)[C@H]1C[C@@H](CC(=O)NCc3ccc(Oc4ccccc4)cc3)O[C@H](CO)[C@H]1O2
  A: 82* | B: / | C: / | D: -1
10) CN(C)CC(=O)Nc1ccc2c(c1)[C@H]1C[C@@H](CC(=O)NCc3ccccc3)O[C@H](CO)[C@H]1O2
  A: 21* | B: -6 | C: 0 | D: -1
11) COc1cccc(S(=O)(=O)N2C[C@@H](O)COC[C@H]3O[C@@H](CC(=O)Nc4ccccc4)CC[C@@H]32)c1
  A: 6 | B: / | C: -2 | D: 0
12) CCCNC(=O)[C@H]1[C@H](CO)[C@H]2Cn3c(cccc3=O)[C@@H]1N2C(=O)Nc1cc(F)ccc1F
  A: -7 | B: 5 | C: 88* | D: 0
13) CCCNC(=O)[C@H]1[C@H](CO)[C@H]2Cn3c(cccc3=O)[C@@H]1N2CCC(F)(F)F
  A: 20* | B: / | C: 56 | D: 0
14) COc1ccc(S(=O)(=O)N[C@H]2CC[C@@H](CC(=O)N3CCc4ccccc4C3)O[C@@H]2CO)cc1
  A: 2 | B: -7 | C: 1 | D: -1
15) N#Cc1c(Cl)cccc1N1CCSCC1
  A: 36* | B: / | C: / | D: 0

# More results.
# Screens by letter – A = DENV2 CPE rescue; B = UUG fidelity; C = Cneo AK release; D = E-selectin induc
16) CN(C)CC(=O)N1CC2(C1)[C@H](c1ccccc1)[C@@H](CO)N2S(=O)(=O)c1ccccc1
  A: -8 | B: / | C: / | D: 0
17) COCCOC(=O)N1C(=O)[C@@]2(c3cc(C#CCC(C(=O)OC)C(=O)OC)ccc31)[C@H](c1ccccc1OCCO)N1[C@H](c3ccccc3)[C@H](c3ccccc3)OC(=O)[C@H]1[C@@H]2C(=O)NC[C@H](O)c1ccccc1
  A: 30* | B: 23 | C: -1 | D: /
18) NC(=O)NCC#Cc1ccc2c(c1)[C@]1(C(=O)N2)[C@H](C(N)=O)[C@H]2C(=O)O[C@H](c3ccccc3)[C@H](c3ccccc3)N2[C@@H]1c1ccccc1OCCO
  A: ? | B: 31 | C: 96* | D: /
19) NC(=O)NCC#Cc1ccc2c(c1)[C@]1(C(=O)N2)[C@H](c2ccccc2OCCO)N2[C@H](c3ccccc3)[C@H](c3ccccc3)OC(=O)[C@H]2[C@@H]1C(=O)O
  A: 4 | B: 5 | C: 0 | D: /
20) COc1ccccc1CNC(=O)C[C@H]1C[C@@H]2c3cc(NS(=O)(=O)c4ccc(F)cc4)ccc3O[C@@H]2[C@H](CO)O1
  A: -2 | B: / | C: -24 | D: 1
21) O=S(=O)(c1cccs1)N1CCCCN2[C@H](C1)[C@H](c1ccc(Br)cc1)[C@@H]2CO
  A: -9 | B: 8 | C: -1 | D: -1
22) COCC#Cc1ccc([C@@H]2[C@H]3CN(S(=O)(=O)c4ccccc4F)CCCCN3[C@H]2CO)cc1
  A: 33* | B: -1 | C: 5 | D: 0
23) COCC#Cc1ccc([C@@H]2[C@@H](CO)N3CCCCN(S(=O)(=O)c4ccccc4C)C[C@@H]23)cc1
  A: -2 | B: -12 | C: 1 | D: 0
24) O=S(=O)(c1ccccc1F)N1CCCCN2[C@H](CO)[C@H](c3ccc(-c4ccccc4)cc3)[C@H]2C1
  A: 34* | B: 12 | C: -2 | D: 0
25) O=S(=O)(c1cccs1)N1CCCCN2[C@@H](CO)[C@H](c3ccc(Br)cc3)[C@@H]2C1
  A: 33* | B: 2 | C: 3 | D: 0
26) COc1ccc(COCC23N=C4SCC(=O)N4[C@H](c4ccccc4O2)[C@H]3CO)cc1
  A: 26* | B: 17 | C: 20 | D: /
27) COc1ccc(COCC23N=C4SCCCN4[C@H](c4ccccc4O2)[C@H]3CO[Si](C)(C)C(C)(C)C)cc1
  A: 20 | B: 9 | C: 4 | D: /
28) OC[C@@H]1[C@H]2c3ccccc3OC1(CO)N=C1SCc3ccccc3CN12
  A: 2 | B: -17 | C: -1 | D: /
29) O=C1CSC2=NC3(CO)Oc4ccccc4[C@H]([C@H]3CO)N12
  A: 27* | B: -20 | C: 7 | D: /
30) CC(C)NC(=O)Nc1ccc2c(c1)C(=O)N([C@H](C)CO)C[C@H](C)[C@H](CN(C)S(=O)(=O)c1ccc(Cl)cc1)OCCCC[C@H](C)O2
  A: -5 | B: 0 | C: 0 | D: /

# 4 compounds from above, arranged by their value in UUG fidelity, largest number first.
entry | molecule | UUG fidelity
17 | COCCOC(=O)N1C(=O)[C@@]2(c3cc(C#CCC(C(=O)OC)C(=O)OC)ccc31)[C@H](c1ccccc1OCCO)N1[C@H](c3ccccc3)[C@H](c3ccccc3)OC(=O)[C@H]1[C@@H]2C(=O)NC[C@H](O)c1ccccc1 | 23
24 | O=S(=O)(c1ccccc1F)N1CCCCN2[C@H](CO)[C@H](c3ccc(-c4ccccc4)cc3)[C@H]2C1 | 12
22 | COCC#Cc1ccc([C@@H]2[C@H]3CN(S(=O)(=O)c4ccccc4F)CCCCN3[C@H]2CO)cc1 | -1
29 | O=C1CSC2=NC3(CO)Oc4ccccc4[C@H]([C@H]3CO)N12 | -20

# Following part
# Screens by letter – A = DENV2 CPE rescue; B = UUG fidelity; C = Cneo AK release; D = E-selectin induc
31) C[C@H]1CN([C@@H](C)CO)S(=O)(=O)c2ccc(-c3cncnc3)cc2O[C@H]1CN(C)C(=O)Cc1ccccc1
  A: 3 | B: -7 | C: -2 | D: 0
32) COCC#Cc1ccc2c(c1)O[C@H](CN(C)S(C)(=O)=O)[C@@H](C)CN([C@H](C)CO)S2(=O)=O
  A: -2 | B: 12 | C: 44 | D: 0
33) COc1ccc(S(=O)(=O)Nc2ccc3c(c2)C(=O)N([C@@H](C)CO)C[C@H](C)[C@@H](CN(C)Cc2ccc(C(=O)O)cc2)OCCCC[C@H](C)O3)cc1
  A: 54* | B: -6 | C: 2 | D: 0
34) C[C@@H]1CCCCO[C@@H](CN(C)Cc2ccc(C(=O)O)cc2)[C@H](C)CN([C@@H](C)CO)C(=O)c2cc(NS(C)(=O)=O)ccc2O1
  A: -6 | B: -7 | C: -2 | D: 0
35) COc1ccc(CN(C)C[C@@H]2OCCCC[C@H](C)Oc3ccc(NS(=O)(=O)c4ccc(F)cc4)cc3C(=O)N([C@@H](C)CO)C[C@H]2C)cc1
  A: 59* | B: 21 | C: -1 | D: /
36) C[C@@H]1CCCCO[C@@H](CN(C)Cc2ccc(C(=O)O)cc2)[C@@H](C)CN([C@@H](C)CO)C(=O)c2cc(NS(C)(=O)=O)ccc2O1
  A: 48* | B: 4 | C: 0 | D: 0
37) CO[C@H]1CN(C)C(=O)c2cc(NC(=O)NC(C)C)ccc2OC[C@H](C)N(Cc2ccccc2)C[C@H]1C
  A: 0 | B: / | C: 0 | D: 0
38) C[C@H]1CN([C@@H](C)CO)C(=O)c2cc(NS(=O)(=O)c3ccc(F)cc3)ccc2O[C@@H]1CN(C)C(=O)NC1CCCCC1
  A: 1 | B: 6 | C: -1 | D: -16
39) CN(C)c1ccc(CNc2nc3ccccc3n2C)cc1
  A: -5 | B: -12 | C: -1 | D: 1
40) CCCn1c(NCc2ccc(N(C)C)cc2)nc2ccccc21
  A: 24* | B: -14 | C: 0 | D: 3
41) COc1ccc(C(C(=O)NCc2ccccc2)n2c(-c3ccncc3)nc3ccccc32)cc1 (centres undefined)
  A: 22* | B: / | C: / | D: 0
42) O=C(NCc1ccc(F)cc1)c1cc(-c2ccccn2)nc2ccc(S(=O)(=O)N3CCOCC3)cc12
  A: 31* | B: -2 | C: 3 | D: 0
43) COc1ccc(CNC(=O)CCNC(=O)c2ccco2)cc1OC
  A: 39* | B: -21 | C: 1 | D: 0

# Screening results from PubChem BioAssay.
